Reference: patent US20140356349A1, “BIOMARKERS OF RESISTANCE TO HER2 INHIBITORS” (Seoul National University R&DB Foundation, priority 2013, published 2014)

Experiments:
[1] = test system: BT474 HR clone cells (HR-8); assay: 3D culture in media:Matrigel 3:1; type: cell-based, human; conditions: HR-8 vs BT474 wild type, 20 μg/ml Herceptin re-treated every 72 hours; FIG. 3 lower panel
Procedure: In addition, 5×10^5 cells of BT474 wild type or HR clone cells (HR-8) were cultured in a 6-well plate in a three-dimensional environment made up of media:Matrigel (BD Biosciences)=3:1 and resistance of HR clone to Herceptin was examined. 20 μg/ml of Herceptin was treated to the 6-well plate and cultured.

[2] = test system: metastatic breast cancer having tumors that overexpress HER2; conditions: patients with metastatic breast cancer overexpressing HER2; cited from earlier work
[3] = test system: BT474 HR clone cells (HR-8); assay: 3D-growth assay in 0.4% agarose cell layer; type: cell-based, human; conditions: HR-8, 20 μg/ml Herceptin re-treated every 72 hours, observed day 1-29, unlike BT474 wild type; FIG. 3 upper panel
From the text: Effects of herceptin on proliferation of HR clones harvested from BALB/C nude immunodeficient mice (CAnN.Cg-Foxn1nu/CrljOri, Orient) transplanted with HER2 protein-positive human breast cancer cell BT474 in Example 1 were examined by performing a 3D-growth assay.
A bottom layer of 0.8% low melting point agarose(Sigma) was made into a 6-well plate, and when the bottom layer became solid, 3×10^4 cells of BT474 wild type (wt) or HR clone cells (HR-8) were admixed to 0.4% agarose to make a cell suspension layer (0.4% agarose cell layer). 20 μg/ml of Herceptin was treated to the cell suspension layer and cultured. The same concentration of Herceptin was additionally treated every 72 hours. The time of cell seeding into the 6-well plate was set to day 0, and on 1st, 8th, 15th, 22nd, and 29th day, cells were observed by using an optical microscope at a magnification of 100×.

[4] = test system: BT474 HR clones (HR-4, HR-8, HR-14, HR-15, HR-16, HR-17, HR-22); assay: MTT assay using Herceptin-resistant (HR) clones; type: cell-based, human; conditions: 20 μg/ml Herceptin, 48 hours, control PBS; FIG. 2
Procedure: A MTT assay was performed using HR clones (HR-4, HR-8, HR-14, HR-15, HR-16, HR-17, HR-22) established in Example 1.
5×10^3 cells were seeded into a 96-well plate. After 24 hours, cells were treated with 20 μg/ml of Herceptin. After 48 hours, cells were allowed to react with a MTT solution for 3 hours. Formed formazan crystals were dissolved with DMSO (Sigma) and O.D value was measured by using ELISA. For a control, cells treated with the same amount of PBS solution were used.

trastuzumab [Herceptin]
resistance of HR clone to Herceptin in Matrigel 3D culture [1]: BT474 herceptin resistance cells were found out
overall response rate [2]: below 35%
changes in cell viability caused by Herceptin treatment [3]: changes in cell viability caused by Herceptin treatment were not observed
resistance of HR clones to Herceptin (MTT, O.D.) [4]: HR clones showed resistance to Herceptin
